This note sets out measurements from patent US11305012B2, “Binding molecules specific for HER3 and uses thereof” (MedImmune, LLC, priority 2013, dated 2022).

A word on the TGI: it is how far tumour growth fell short of that in controls.

For one test, the system named is MDA-MB-361 xenografts. The test is described as follows: Orthotopic human MDA-MB-361 breast cancer xenograft model. It is filed as in vivo, mouse. Particulars: trastuzumab and rhuMAb 2C4 10 mg/kg, lapatinib 100 mg/kg twice daily, 2C2-YTE 30 mg/kg. The method, then: (§1) Orthotopic xenografts were established by injecting 5×10^6 cells per mouse (suspended in 50% matrigel) into the mammary fat pad on the right flank of 4 to 6-week-old athymic nu/nu mice. Estrogen pellets (0.36 mg) were placed under the skin of the left flank 1-2 days before cell injection. […] Lapatinib was administered by oral gavaging at 100 mg per kilogram body weight. Caliper measurements were used to calculate tumor volumes using the formula: tumor volume=π÷6(length×width×width) • for tumors grown in mice.
For orientation: A xenograft is tissue or cells of one species grown in another, often human tumour cells in immunodeficient mice.

In another test the test system is BT-474 xenografts. The test is described as follows: Orthotopic human BT-474 breast cancer xenograft model. The format is in vivo, mouse. Particulars: BT-474 orthotopic, antibodies 30 mg/kg, lapatinib 100 mg/kg. As to the method: as §1, with “1×10^7” for “5×10^6”, “injection. Tumors were allowed to grow up to 200 mm^3 before randomization for efficacy studies.” for “injection.”

A further test relates to BT-474 and SkBR3. The test is described as follows: PBMC-enabled ADCC assay. The format is cell-based, human. The following applies: BT-474 and SkBR3, PBMC; data not shown. The method, then: ADCC is one recognized way through which a monoclonal antibody can confer its anti-tumor efficacy in vivo. […] 2C2-YTE was tested in CDC assays using human serum as a source of complement.

In test [1] the test system is human MCF-7 breast cancer xenograft. In words: Orthotopic human MCF-7 breast cancer xenograft model. The format is in vivo, mouse. The following applies: MCF-7 orthotopic, 10 mg/kg. The method, then:
as §1, with “Human MCF-7 breast cancer cells were maintained at 37° C. in a 5% CO2 incubator in Optimem medium containing glutamax, 2.4/L sodium bicarbonate, Hepes and 5% fetal bovine serum. Orthotopic” for “Orthotopic”, “injection. Tumors were allowed to grow up to 200 mm^3 before randomization for efficacy studies. 2C2, 2C2-YTE and trastuzumab monoclonal antibodies were administered intraperitoneally.” for “injection.”, “Paclitaxel” for “Lapatinib”, “intravenously” for “by oral gavaging”, “10” for “100”

Another test has as its system OE-21 xenografts. The test is described as follows: Human OE-21 head and neck cancer xenograft model. It is filed as in vivo, mouse. The following applies: OE-21, 10 mg/kg (each). As to the method:
Protocols similar to those described in section 5.1 above were carried out with OE-21 cells as a xenograph model of head and neck cancer.
Treatment with antibodies were administered starting at approximately day 13 post-implantation of OE-21 cells. […] Caliper measurements were used to calculate tumor volumes as described in section 5.1 above. Similarly, antitumor effects are expressed as percent delta tumor growth inhibition (TGI) as described in section 5.1 above.

The subject of test [2] is human Detroit562 Head and Neck xenograft. The test is described as follows: Subcutaneous human Detroit562 head and neck xenograft model. The following applies: Detroit562, 2C2 3 mg/kg, cetuximab 10 mg/kg. It is filed as in vivo, mouse. The source says: (§2) Xenografts were established by subcutaneously injecting 5×10^6 cells per mouse into the right flanks of 4- to 6-week-old athymic nu/nu mice. Tumors were allowed to grow up to 200 mm^3 before randomization for efficacy studies. […] Caliper measurements were used to calculate tumor volumes using the formula: tumor volume=π÷6(length×width×width) • for tumors grown in mice.

The test system of test [3] is human LOVO colorectal xenograft. In words: Subcutaneous human LOVO CRC xenograft model. It is filed as in vivo, mouse. Particulars: 10 mg/kg. The method, then: Human LOVO colorectal carcinoma cells (ATCC No. CCL-229) were maintained at 37° C. in a 5% CO2 incubator in HAM'S F12K medium containing 4.5 g/L glucose, L-glutamine, sodium pyruvate and 10% fetal bovine serum. Xenografts were established by subcutaneously injecting 5×10^6 cells per mouse into the right flanks of 4- to 6-week-old athymic nu/nu mice. Tumors were allowed to grow up to 200 mm^3 before randomization for efficacy studies. […] Caliper measurements were used to calculate tumor volumes using the formula: tumor volume=π÷6(length×width×width) • for tumors grown in mice.

Test [4] deals with HER3, pHER3 and pAKT in SW620, SW480, Colo205, LOVO, HCT15, Caco-2. The test is described as follows: HRG-stimulated HER3 signaling in CRC tumor cell lines (Western). It is filed as cell-based, human. The following applies: antibodies 10 μg/mL, gefitinib 5 μM, HRG 50 ng/mL. The method, then: In the presence of the HER3 ligand heregulin (HRG), HER3 heterodimerizes with EGFR or HER2, which leads to phosphorylation of HER3 and transmission of an oncogenic signal via phosphoinositide 3 kinase (PI3K) and protein kinase B (PKB), also known as AKT. A collection of CRC models were characterized to determine which receptor tyrosine kinase, EGFR or HER2, is the major driver of signaling through HER3. […] Briefly, cells were seeded into 24-well plates at a density of 1.5×10^5 cells per well. […] After 5-6 hours of incubation at 37° C., HRG was added at 50 ng/mL into one set of cells for 15 minutes at 37° C. All cells were then washed with cold PBS and lysed by the addition of 60 μL of 2×SDS (sodium dodecyl sulfate) sample buffer (Invitrogen). Lysates were transferred to 1.5 mL tubes and boiled for 5 minutes followed by chilling on ice for 2 minutes. Equal volumes (20 μL) of protein samples were resolved in NuPAGE Novex Bis-Tris gels (Invitrogen) before transfer to polyvinylidene fluoride (PVDF) membranes (Invitrogen). […] After washing, protein bands were detected on X-ray film by using SuperSignal West Pico Chemiluminescent Substrate (Pierce/Thermo Scientific).

Another test concerns HARA-B NSCLC xenografts. The test is described as follows: Human HARA-B squamous cell carcinoma xenograft model with cetuximab. The format is in vivo, mouse. Particulars: 10 mg/kg (each). As to the method: Protocols similar to those described in section 5.1 above were carried out with HARA-B cells as a xenograph model of squamous NSCLC.
Treatment with antibodies were administered starting at approximately day 12 post-implantation of HARA-B cells. […] Caliper measurements were used to calculate tumor volumes as described in section 5.1 above. Similarly, antitumor effects are expressed as percent delta tumor growth inhibition (TGI) as described in section 5.1 above.

The subject of test [5] is human HT-29 colorectal xenograft. In words: Subcutaneous human HT-29 CRC xenograft model. It is filed as in vivo, mouse. The following applies: HT-29, 10 mg/kg alone.
Excerpt: as §2

Test [6] deals with human HCT-116 colorectal xenograft. The test is described as follows: Subcutaneous human HCT-116 CRC xenograft model. The format is in vivo, mouse. Particulars: HCT-116, 10 mg/kg.
Excerpt: as §2

The subject of test [7] is KNS-62 non-small cell lung cancer (NSCLC) xenografts. In words: Human KNS-62 bronchial squamous cell carcinoma xenograft model. It is filed as in vivo, mouse. Particulars: KNS-62, 10 mg/kg (each). As to the method:
Protocols similar to those described in section 5.1 above were carried out with KNS-62 cells as a xenograph model of bronchial squamous cell carcinoma (see, e.g., Takaki, T., J. Cancer Research and Clinical Oncology, 1980, 96(1): 27-33).
Treatment with antibodies were administered starting at about day 8 post-implantation of KNS-62 cells. […] Caliper measurements were used to calculate tumor volumes as described in section 5.1 above. Similarly, antitumor effects are expressed as percent delta tumor growth inhibition (TGI) as described in section 5.1 above.

Test [8] has as its system CAL27 head and neck tumor model. In words: Subcutaneous human CAL27 head and neck xenograft model. It is filed as in vivo, mouse. Particulars: CAL27, 30 mg/kg twice per week.
Excerpt: as §2

“Also recorded” adds a separate entry of the source.

In the case of trastuzumab, the “anti-tumor efficacy (in words)” value with MDA-MB-361 xenografts is given as “showed anti-tumor efficacy”; in the test on BT-474 xenografts, “very active”; in test [1], “did not demonstrate efficacy”. For the same substance, the “ADCC effect (in words)” value in the test on BT-474 and SkBR3 was “significant tumor-killing effects”.
For cetuximab [reference compound], the “anti-tumor efficacy (in words)” value is on record as “modest anti-tumor activity” in the test with OE-21 xenografts; “comparable efficacy” in test [3]; “no anti-tumor activity; also recorded: did not respond” with HARA-B NSCLC xenografts; “no efficacy” in test [6]; “no anti-tumor activity; also recorded: did not respond” in test [7]. In test [2], the partial regressions is 5/10. For the same substance, in [4], the “effect on HRG ligand-dependent signaling (HER3, pHER3, pAKT; in words)” value is recorded as “no effect”. Also, the “anti-tumor activity (in words)” value in test [5] is on record as “no measurable anti-tumor activity”. This substance displayed a TGI in [8] of 75.0%.
